Literature values in article PMC3341490 (Nuclear Medicine and Biology, 2012).

Tested on: GRPR-expressing, PC-3 xenografted tumors in SCID mice
Conditions: 1 hour; linker between NOTA and BN(7-14); ref [19]

For ^64Cu-NO2A-AMBA-BN(7-14), the PC-3 tumor uptake is given as 6.05 % ID/g.
